Reference: patent US20090099157A1, “TETRAHYDRO-PYRAZOLO-PYRIDINE THIOETHER MODULATORS OF CATHEPSIN S” (priority 2007, published 2009)

The chains behind the UniProt entries cited, without tags or fusion partners. Residues count along the entry.
UniProt P25774, 115-331: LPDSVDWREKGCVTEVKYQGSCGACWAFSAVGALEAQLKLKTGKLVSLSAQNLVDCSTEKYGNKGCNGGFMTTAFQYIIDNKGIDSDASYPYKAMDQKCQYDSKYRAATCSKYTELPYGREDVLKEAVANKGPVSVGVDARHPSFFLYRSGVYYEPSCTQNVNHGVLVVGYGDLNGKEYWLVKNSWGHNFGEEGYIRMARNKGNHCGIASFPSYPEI

These compounds were tested against Recombinant human cathepsin S (CatS) (Homo sapiens, UniProt P25774) (assay: biochemical).

In order of rising IC50:
1. CS(=O)(=O)N1CCc2c(c(-c3ccc(C(F)(F)F)c(SCCN4CCOC(CO)C4)c3)nn2CC(O)CN2CCC(N3CCCC3=O)CC2)C1 (stereo not shown) [Example 165, 1-[1-(2-Hydroxy-3-{3-[3-({2-[2-(hydroxymethyl)morpholin-4-yl]ethyl}sulfanyl)-4-(trifluoromethyl)phenyl]-5-(methylsulfonyl)-4,5,6,7-tetrahydro-1H-pyrazolo[4,3-c]pyridin-1-yl}propyl)piperidin-4-yl]pyrrolidin-2-one]  0.06 µM
2. CC1CCN(CCSc2cc(-c3nn(CC(O)CN4CCCCC4)c4c3CN(C(=O)C(N)=O)CC4)ccc2C(F)(F)F)CC1 (stereo not shown) [Example 362, 2-{1-(2-Hydroxy-3-piperidin-1-ylpropyl)-3-[3-{[2-(4-methylpiperidin-1-yl)ethyl]sulfanyl}-4-(trifluoromethyl)phenyl]-1,4,6,7-tetrahydro-5H-pyrazolo[4,3-c]pyridin-5-yl}-2-oxoacetamide]  0.1 µM
3. CC(=O)NC1CCN(CCCn2nc(-c3ccc(C(F)(F)F)c(SCCN4CCCCC4)c3)c3c2CCN(S(C)(=O)=O)C3)CC1 [Example 529, N-(1-{3-[5-(Methylsulfonyl)-3-{3-[(2-piperidin-1-ylethyl)sulfanyl]-4-(trifluoromethyl)phenyl}-4,5,6,7-tetrahydro-1H-pyrazolo[4,3-c]pyridin-1-yl]propyl}piperidin-4-yl)acetamide]  0.15 µM
4. CS(=O)(=O)N1CCc2c(c(-c3ccc(C(F)(F)F)c(SCCN4CCC(F)CC4)c3)nn2C[C@@H](O)CN2CC=CCC2)C1 [Example 204, (2S)-1-(3,6-Dihydropyridin-1(2H)-yl)-3-{3-[3-{[2-(4-fluoropiperidin-1-yl)ethyl]sulfanyl}-4-(trifluoromethyl)phenyl]-5-(methylsulfonyl)-4,5,6,7-tetrahydro-1H-pyrazolo[4,3-c]pyridin-1-yl}propan-2-ol]  0.19 µM
5. N#Cc1ccccc1N1CCN(CC(O)Cn2nc(-c3ccc(C(F)(F)F)c(SCC(=O)N4CCOCC4)c3)c3c2CCNC3)CC1 (stereo not shown) [Example 526, 2-{4-[2-Hydroxy-3-(3-{3-[(2-morpholin-4-yl-2-oxoethyl)sulfanyl]-4-(trifluoromethyl)phenyl}-4,5,6,7-tetrahydro-1H-pyrazolo[4,3-c]pyridin-1-yl)propyl]piperazin-1-yl}benzonitrile]  0.2 µM
6. O=C(CO)N1CCc2c(c(-c3ccc(C(F)(F)F)c(SCCN4CCC(F)CC4)c3)nn2C[C@@H](O)CN2CCCCC2)C1 [Example 251, (2S)-1-{3-[3-{[2-(4-Fluoropiperidin-1-yl)ethyl]sulfanyl}-4-(trifluoromethyl)phenyl]-5-(hydroxyacetyl)-4,5,6,7-tetrahydro-1H-pyrazolo[4,3-c]pyridin-1-yl}-3-piperidin-1-ylpropan-2-ol]  0.23 µM
7. CS(=O)(=O)N1CCc2c(c(-c3ccc(C(F)(F)F)c(SCCN4CCOC(CO)C4)c3)nn2CC(O)CN2CCCCC2)C1 (stereo not shown) [Example 164, 1-{3-[3-({2-[2-(Hydroxymethyl)morpholin-4-yl]ethyl}sulfanyl)-4-(trifluoromethyl)phenyl]-5-(methylsulfonyl)-4,5,6,7-tetrahydro-1H-pyrazolo[4,3-c]pyridin-1-yl}-3-piperidin-1-ylpropan-2-ol]  0.4 µM
8. CC1CCCN1CCSc1cc(-c2nn(CCCN3CCC(N4CCCC4=O)CC3)c3c2CN(S(C)(=O)=O)CC3)ccc1C(F)(F)F (stereo not shown) [Example 28, 1-{1-[3-(5-Methanesulfonyl-3-{3-[2-(2-methyl-pyrrolidin-1-yl)-ethylsulfanyl]-4-trifluoromethyl-phenyl}-4,5,6,7-tetrahydro-pyrazolo[4,3-c]pyridin-1-yl)-propyl]-piperidin-4-yl}-pyrrolidin-2-one]  0.56 µM
9. CN(C)C1CCN(C(=O)CSc2cc(-c3nn(CCCN4CCC(N5CCCC5=O)CC4)c4c3CN(S(C)(=O)=O)CC4)ccc2C(F)(F)F)CC1 [Example 87, 1-{1-[3-(3-{3-[2-(4-Dimethylamino-piperidin-1-yl)-2-oxo-ethylsulfanyl]-4-trifluoromethyl-phenyl}-5-methanesulfonyl-4,5,6,7-tetrahydro-pyrazolo[4,3-c]pyridin-1-yl)-propyl]-piperidin-4-yl}-pyrrolidin-2-one]  0.58 µM
10. O[C@@H](CN1CCC(c2ccncc2)CC1)Cn1nc(-c2ccc(C(F)(F)F)c(SCCN3CCC(F)CC3)c2)c2c1CCNC2 [Example 400, (2S)-1-{3-[3-{[2-(4-Fluoropiperidin-1-yl)ethyl]sulfanyl}-4-(trifluoromethyl)phenyl]-4,5,6,7-tetrahydro-1H-pyrazolo[4,3-c]pyridin-1-yl}-3-(4-pyridin-4-ylpiperidin-1-yl)propan-2-ol]  0.68 µM
11. CCC(=O)N1CCc2c(c(-c3ccc(C(F)(F)F)c(SCCN4CCC(F)CC4)c3)nn2C[C@@H](O)CN2CCCCC2)C1 [Example 337, (2S)-1-{3-[3-{[2-(4-Fluoropiperidin-1-yl)ethyl]sulfanyl}-4-(trifluoromethyl)phenyl]-5-propanoyl-4,5,6,7-tetrahydro-1H-pyrazolo[4,3-c]pyridin-1-yl}-3-piperidin-1-ylpropan-2-ol]  0.69 µM
12. OC(CN1CCN(c2ccc(F)cc2)CC1)Cn1nc(-c2ccc(C(F)(F)F)c(SCCN3CCC(F)(F)C3)c2)c2c1CCNC2 (stereo not shown) [Example 521, 1-{3-[3-{[2-(3,3-Difluoropyrrolidin-1-yl)ethyl]sulfanyl}-4-(trifluoromethyl)phenyl]-4,5,6,7-tetrahydro-1H-pyrazolo[4,3-c]pyridin-1-yl}-3-[4-(4-fluorophenyl)piperazin-1-yl]propan-2-ol]  1.13 µM
13. O=C(N1CCCC1)N1CCc2c(c(-c3ccc(C(F)(F)F)c(SCCN4CCC(F)CC4)c3)nn2C[C@@H](O)CN2CCCCC2)C1 [Example 511, (2S)-1-{3-[3-{[2-(4-Fluoropiperidin-1-yl)ethyl]sulfanyl}-4-(trifluoromethyl)phenyl]-5-(pyrrolidin-1-ylcarbonyl)-4,5,6,7-tetrahydro-1H-pyrazolo[4,3-c]pyridin-1-yl}-3-piperidin-1-ylpropan-2-ol]  1.19 µM
14. O=C(C1CCN(CC(O)Cn2nc(-c3ccc(C(F)(F)F)c(SCCN4CCC(F)CC4)c3)c3c2CCNC3)CC1)N1CCCC1 (stereo not shown) [Example 508, 1-{3-[3-{[2-(4-Fluoropiperidin-1-yl)ethyl]sulfanyl}-4-(trifluoromethyl)phenyl]-4,5,6,7-tetrahydro-1H-pyrazolo[4,3-c]pyridin-1-yl}-3-[4-(pyrrolidin-1-ylcarbonyl)piperidin-1-yl]propan-2-ol]  1.88 µM
15. CN1CCCN(CC(O)Cn2nc(-c3ccc(C(F)(F)F)c(SCCN4CCCC4)c3)c3c2CCN(S(C)(=O)=O)C3)CC1 (stereo not shown) [Example 382, 1-(4-Methyl-1,4-diazepan-1-yl)-3-[5-(methylsulfonyl)-3-{3-[(2-pyrrolidin-1-ylethyl)sulfanyl]-4-(trifluoromethyl)phenyl}-4,5,6,7-tetrahydro-1H-pyrazolo[4,3-c]pyridin-1-yl]propan-2-ol]  4.76 µM
16. CN1CCc2c(c(-c3ccc(C(F)(F)F)c(SCCN4CCC(F)CC4)c3)nn2CC(O)CN2CCCCC2)C1 (stereo not shown) [Example 303, 1-{3-[3-{[2-(4-Fluoropiperidin-1-yl)ethyl]sulfanyl}-4-(trifluoromethyl)phenyl]-5-methyl-4,5,6,7-tetrahydro-1H-pyrazolo[4,3-c]pyridin-1-yl}-3-piperidin-1-ylpropan-2-ol]  9.03 µM
